Here are results for 22 compounds from patent US20240254119A1 (THIRD HARMONIC BIO, INC., priority 2022, published 2024).

Amino acid sequences for entries named in this document (tags omitted). Residues count along the entry.
UniProt P07333, 20-972 limits assumed: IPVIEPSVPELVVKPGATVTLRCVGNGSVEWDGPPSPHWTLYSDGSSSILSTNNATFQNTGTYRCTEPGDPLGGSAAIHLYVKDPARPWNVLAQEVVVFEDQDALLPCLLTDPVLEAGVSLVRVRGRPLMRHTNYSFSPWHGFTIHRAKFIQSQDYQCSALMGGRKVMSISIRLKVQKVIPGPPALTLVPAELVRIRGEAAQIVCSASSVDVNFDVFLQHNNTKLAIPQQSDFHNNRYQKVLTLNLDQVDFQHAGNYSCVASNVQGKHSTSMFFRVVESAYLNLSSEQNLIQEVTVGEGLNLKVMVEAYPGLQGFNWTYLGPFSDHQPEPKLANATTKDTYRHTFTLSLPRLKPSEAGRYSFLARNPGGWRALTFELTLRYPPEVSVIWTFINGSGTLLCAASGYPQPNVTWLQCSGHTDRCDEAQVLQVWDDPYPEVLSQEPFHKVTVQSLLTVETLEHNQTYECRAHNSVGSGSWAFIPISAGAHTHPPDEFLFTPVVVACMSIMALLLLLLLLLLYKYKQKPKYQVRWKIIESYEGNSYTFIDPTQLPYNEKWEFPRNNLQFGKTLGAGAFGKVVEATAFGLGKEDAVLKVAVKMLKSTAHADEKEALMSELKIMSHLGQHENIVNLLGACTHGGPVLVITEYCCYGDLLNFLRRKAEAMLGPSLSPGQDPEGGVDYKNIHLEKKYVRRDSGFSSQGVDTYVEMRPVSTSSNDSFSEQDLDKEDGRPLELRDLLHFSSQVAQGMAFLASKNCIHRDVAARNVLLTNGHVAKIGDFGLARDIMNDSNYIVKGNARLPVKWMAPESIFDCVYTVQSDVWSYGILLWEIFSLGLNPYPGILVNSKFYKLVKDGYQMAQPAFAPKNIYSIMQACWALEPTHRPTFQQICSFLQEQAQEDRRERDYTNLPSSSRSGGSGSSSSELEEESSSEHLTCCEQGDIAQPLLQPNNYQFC
UniProt P10721, 26-976 limits assumed: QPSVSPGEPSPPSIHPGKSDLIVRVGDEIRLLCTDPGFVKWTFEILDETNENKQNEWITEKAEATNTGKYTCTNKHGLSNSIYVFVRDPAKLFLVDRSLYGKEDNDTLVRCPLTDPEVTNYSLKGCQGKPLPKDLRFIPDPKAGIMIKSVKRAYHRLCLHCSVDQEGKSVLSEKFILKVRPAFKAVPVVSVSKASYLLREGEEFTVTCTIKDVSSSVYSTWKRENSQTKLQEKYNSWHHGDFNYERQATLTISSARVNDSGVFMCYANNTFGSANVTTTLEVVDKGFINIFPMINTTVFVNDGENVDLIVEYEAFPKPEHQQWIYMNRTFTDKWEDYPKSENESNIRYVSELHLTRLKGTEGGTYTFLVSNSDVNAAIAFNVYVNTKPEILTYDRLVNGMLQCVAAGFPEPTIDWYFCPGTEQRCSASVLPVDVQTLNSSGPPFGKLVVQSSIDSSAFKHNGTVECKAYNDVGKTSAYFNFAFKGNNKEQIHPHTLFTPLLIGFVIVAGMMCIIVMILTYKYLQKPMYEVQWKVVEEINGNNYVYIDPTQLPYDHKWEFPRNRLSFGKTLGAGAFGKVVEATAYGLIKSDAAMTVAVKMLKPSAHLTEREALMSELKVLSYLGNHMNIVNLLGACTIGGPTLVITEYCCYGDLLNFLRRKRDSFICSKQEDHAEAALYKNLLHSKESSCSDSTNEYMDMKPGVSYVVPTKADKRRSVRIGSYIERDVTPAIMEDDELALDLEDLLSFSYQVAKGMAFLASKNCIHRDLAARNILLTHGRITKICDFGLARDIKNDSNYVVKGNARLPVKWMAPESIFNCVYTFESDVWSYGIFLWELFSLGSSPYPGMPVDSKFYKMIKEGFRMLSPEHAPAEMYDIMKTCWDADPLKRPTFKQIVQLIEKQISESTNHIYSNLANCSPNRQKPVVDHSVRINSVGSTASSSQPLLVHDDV
UniProt P16234, 24-1089 limits assumed: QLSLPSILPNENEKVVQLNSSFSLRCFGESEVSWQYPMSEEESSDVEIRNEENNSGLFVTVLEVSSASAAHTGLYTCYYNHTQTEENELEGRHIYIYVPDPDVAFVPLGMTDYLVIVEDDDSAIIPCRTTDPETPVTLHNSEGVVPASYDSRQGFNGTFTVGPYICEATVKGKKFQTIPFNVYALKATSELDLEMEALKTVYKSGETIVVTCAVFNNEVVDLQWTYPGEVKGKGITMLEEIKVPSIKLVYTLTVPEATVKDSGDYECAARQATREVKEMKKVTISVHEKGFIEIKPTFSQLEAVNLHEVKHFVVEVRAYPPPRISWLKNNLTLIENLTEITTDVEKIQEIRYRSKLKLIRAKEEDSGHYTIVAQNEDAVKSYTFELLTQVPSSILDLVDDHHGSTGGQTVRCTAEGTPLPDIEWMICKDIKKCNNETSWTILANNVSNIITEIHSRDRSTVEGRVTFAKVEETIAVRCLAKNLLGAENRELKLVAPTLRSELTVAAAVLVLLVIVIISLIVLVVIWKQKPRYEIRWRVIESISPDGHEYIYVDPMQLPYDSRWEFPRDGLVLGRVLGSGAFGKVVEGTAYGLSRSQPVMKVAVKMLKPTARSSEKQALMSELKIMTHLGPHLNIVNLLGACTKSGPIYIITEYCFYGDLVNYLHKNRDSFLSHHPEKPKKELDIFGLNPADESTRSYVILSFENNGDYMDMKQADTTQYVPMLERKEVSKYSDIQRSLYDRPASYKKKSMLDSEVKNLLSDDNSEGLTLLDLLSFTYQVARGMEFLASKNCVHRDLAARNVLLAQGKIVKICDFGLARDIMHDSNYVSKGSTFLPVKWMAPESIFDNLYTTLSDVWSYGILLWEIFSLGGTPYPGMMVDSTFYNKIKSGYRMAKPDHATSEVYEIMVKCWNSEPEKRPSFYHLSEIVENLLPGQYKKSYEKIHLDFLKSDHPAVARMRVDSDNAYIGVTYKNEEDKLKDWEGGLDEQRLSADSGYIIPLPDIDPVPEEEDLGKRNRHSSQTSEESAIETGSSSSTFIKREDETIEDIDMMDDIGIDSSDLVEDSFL
UniProt Q9UNQ0, whole entry: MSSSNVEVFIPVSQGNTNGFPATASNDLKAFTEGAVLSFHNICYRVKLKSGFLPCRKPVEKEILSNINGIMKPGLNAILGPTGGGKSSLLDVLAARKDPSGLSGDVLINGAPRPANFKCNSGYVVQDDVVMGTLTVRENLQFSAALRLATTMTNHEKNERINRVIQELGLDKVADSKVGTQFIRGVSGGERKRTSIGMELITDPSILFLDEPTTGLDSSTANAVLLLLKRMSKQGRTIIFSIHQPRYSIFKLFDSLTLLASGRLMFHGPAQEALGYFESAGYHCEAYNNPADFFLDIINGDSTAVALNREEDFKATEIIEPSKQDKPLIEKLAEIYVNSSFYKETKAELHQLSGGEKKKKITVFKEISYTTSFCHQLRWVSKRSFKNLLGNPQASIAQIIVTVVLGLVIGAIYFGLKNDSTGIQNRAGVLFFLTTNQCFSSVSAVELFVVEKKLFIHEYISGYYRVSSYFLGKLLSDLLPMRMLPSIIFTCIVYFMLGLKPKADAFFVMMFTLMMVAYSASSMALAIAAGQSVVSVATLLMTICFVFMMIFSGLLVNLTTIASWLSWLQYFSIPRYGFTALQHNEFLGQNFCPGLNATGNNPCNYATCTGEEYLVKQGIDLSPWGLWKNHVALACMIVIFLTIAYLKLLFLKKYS

One series concerns the target CSF-1R (Homo sapiens, UniProt P07333). As to the kind of experiment: Caliper biochemical assay, CSF-1R. Particulars: read-out: CSF-1R Biochemical IC50, Table 6.
The target in series [1] is T1, wtKIT (Homo sapiens, UniProt P10721). As to the kind of experiment: Caliper biochemical assay, wtKIT. The settings on record: read-out: KIT Biochemical IC50 avg, Table 6.
The nature of a further series: Kinetic solubility assay. The settings on record: 50 mM PB (pH 7.4), shaken 24 hours at RT.
Another series concerns the target PDGFRα (Homo sapiens, UniProt P16234). As to the kind of experiment: Caliper biochemical assay, PDGFRα. The settings on record: read-out: PDGFRα Biochemical Avg IC50, Table 6.
In series [2] the test system is KIT phosphorylation in M-07e cells. As to the kind of experiment: Cell-based KIT phosphorylation in M-07e cells by pKIT ELISA. The settings on record: read-out: M-07e pKIT IC50, SCF stimulation. (In general: ELISA stands for enzyme-linked immunosorbent assay.)
For series [3], the target named is BCRP (BCRP-MDCKII monolayer) (Homo sapiens, UniProt Q9UNQ0). As to the kind of experiment: MDCKII-BCRP bidirectional transport assay. The settings on record: for MDCK-BCRP: Papp A-B: apical to basolateral.
Series [4] concerns the target T1, wtKIT. As to the kind of experiment: HTRF biochemical assay, wtKIT (phosphorylation of a peptide substrate). The settings on record: read-out: KIT Biochemical IC50 avg, Table 4.

As usually defined, the IC50 is the concentration at which inhibition is half-maximal. On to `COCc1ccn2c(C(=O)Nc3cc(-c4noc(C5CC5F)n4)ccc3C)cnc2c1` (centres unmarked), for which the IC50 at CSF-1R is below 50 nM; at wtKIT [1], below 50 nM; on PDGFRα it was 50 to 500 nM; in series [2], below 50 nM. Besides, the “Solubility (μM)” value in “Kinetic solubility assay” was “**** (a solubility less than or equal to 2 μM)”.
Take `CCc1nc(-c2ccc(Cl)c(NC(=O)c3cnc4ccccn34)c2)no1`: the IC50 on CSF-1R is below 50 nM; on wtKIT [1] it was below 50 nM; on PDGFRα it was 500 to 5000 nM; in series [2], 50 to 500 nM. In addition, the “Solubility (μM)” value in “Kinetic solubility assay” was “**** (a solubility less than or equal to 2 μM)”.
Regarding `Cc1ccc(-c2noc(C3CC4CC4N3)n2)cc1NC(=O)c1cnc2ccccn12` (centres unmarked), the IC50 on wtKIT [1] was below 50 nM. Moreover, in the series “Kinetic solubility assay”, the “Solubility (μM)” value is “** (a solubility greater than 10 μM and less than or equal to 50 μM)”. In series [3], the MDCK-BCRP: Efflux Ratio came to 3.69 and the “MDCK-BCRP: Papp A-B” value was 7.81 10^−6 cm/s.
Turning to `Cc1nc(-c2ccc(C)c(NC(=O)c3cnc4cc(C#N)ccn34)c2)no1`, the results for the concentration for half-maximal inhibition (IC50) on CSF-1R, at wtKIT [1] and at PDGFRα were 5000 to 30000 nM, 50 to 500 nM and 5000 to 30000 nM, respectively. Also, in the series “Kinetic solubility assay”, the “Solubility (μM)” value is “*** (a solubility greater than 2 μM and less than or equal to 10 μM)”. For the same compound, in series [3], the MDCK-BCRP: Efflux Ratio was 1.96. The “MDCK-BCRP: Papp A-B” value in series [3] is listed as 11.1 10^−6 cm/s.
Regarding `Cc1ccc(-c2noc(C3CC(O)C3)n2)cc1NC(=O)c1cnc2ccccn12` (single isomer, unassigned), the IC50 at CSF-1R was 500 to 5000 nM; at PDGFRα, 500 to 5000 nM; in series [2], below 50 nM. The “Solubility (μM)” value in “Kinetic solubility assay” is “** (a solubility greater than 10 μM and less than or equal to 50 μM)”.
As to `Cc1ccc(-c2noc([C@H]3C[C@@H]3F)n2)cc1NC(=O)c1cnc2cc(Nc3ccc(N4CCCCC4)cc3)ccn12`, the 50% inhibitory concentration (IC50) at wtKIT [1] is below 50 nM. Besides, the “Solubility (μM)” value in “Kinetic solubility assay” is reported as “**** (a solubility less than or equal to 2 μM)”. In series [3], the MDCK-BCRP: Efflux Ratio was 71.8 and the “MDCK-BCRP: Papp A-B” value was 0.000847 ×10⁻⁶ cm/s.
For the compound `Cc1ccc(-c2noc([C@H]3C[C@@H]3F)n2)cc1NC(=O)c1cnn2cc(C#N)ccc12`, the 50% inhibitory concentration (IC50) was 50 to 500 nM at CSF-1R, below 50 nM on wtKIT [1], 5000 to 30000 nM at PDGFRα and 50 to 500 nM in series [2].
On to `Cc1ccc(-c2noc(C3CC(F)(c4cccc(F)c4)C3)n2)cc1NC(=O)c1cnc2ccccn12` (centres unmarked), for which, on wtKIT [1], the IC50 was below 50 nM. In “Kinetic solubility assay”, the “Solubility (μM)” value was “**** (a solubility less than or equal to 2 μM)”. Also, in series [3], the MDCK-BCRP: Efflux Ratio was 1.31 and the “MDCK-BCRP: Papp A-B” value was 0.28 10^−6 cm/s.
Consider `Cc1ccc(-c2noc(C3CC(F)(F)C3)n2)cc1NC(=O)c1cnc2cc(NS(C)(=O)=O)ccn12`, for which the IC50 on CSF-1R, on wtKIT [1] and on PDGFRα was below 50 nM throughout. For the same compound, the “Solubility (μM)” value in “Kinetic solubility assay” was “** (a solubility greater than 10 μM and less than or equal to 50 μM)”. Further, the MDCK-BCRP: Efflux Ratio in series [3] was 28.7. In series [3], the “MDCK-BCRP: Papp A-B” value is listed as 0.58 10^−6 cm/s.
For `Cc1ccc(-c2noc(C3CC3F)n2)cc1NC(=O)c1cnc2cc(Br)ccn12` (single isomer, unassigned), the figures for the IC50 on CSF-1R, on wtKIT [1] and on PDGFRα were below 50 nM, below 50 nM and 50 to 500 nM, respectively. Also, the “Solubility (μM)” value in “Kinetic solubility assay” is given as “**** (a solubility less than or equal to 2 μM)”. Besides, in series [3], the MDCK-BCRP: Efflux Ratio is 1.04. The “MDCK-BCRP: Papp A-B” value in series [3] is on record as 8.32 10^−6 cm/s.
Consider `Cc1ccc(-c2noc(C(C)C)n2)cc1NC(=O)c1cnc2ccccn12`, for which the IC50 on CSF-1R was below 50 nM; on wtKIT [1], below 50 nM; on PDGFRα, 500 to 5000 nM. The “Solubility (μM)” value in the series “Kinetic solubility assay” is “*** (a solubility greater than 2 μM and less than or equal to 10 μM)”. Besides, in series [3], the MDCK-BCRP: Efflux Ratio amounted to 0.56. In addition, in series [3], the “MDCK-BCRP: Papp A-B” value is 20.3 10^−6 cm/s.
For the compound `Cc1ccc(-c2noc(C3CC3F)n2)cc1NC(=O)c1cnc2cc(N(C)C)ccn12` (centres unmarked), the half-inhibitory concentration (IC50) on CSF-1R, at wtKIT [1], at PDGFRα and at wtKIT [4] was below 50 nM throughout. Besides, the “Solubility (μM)” value in “Kinetic solubility assay” is reported as “**** (a solubility less than or equal to 2 μM)”.
For `Cc1ccc(-c2noc(C34C5CC(CC53)C4(F)F)n2)cc1NC(=O)c1cnc2ccccn12`, the IC50 on CSF-1R is below 50 nM; on wtKIT [1], below 50 nM; at PDGFRα, 50 to 500 nM. Besides, the “Solubility (μM)” value in “Kinetic solubility assay” is on record as “**** (a solubility less than or equal to 2 μM)”.
As to `CCc1nc(-c2ccc(Cl)c(NC(=O)c3cnn4ccccc34)c2)no1`, the IC50 at CSF-1R is 50 to 500 nM; on wtKIT [1] it was below 50 nM; on PDGFRα it was 500 to 5000 nM; in series [2], below 50 nM.
For the compound `COC(=O)N1CC(c2nc(-c3ccc(C)c(NC(=O)c4cnc5ccc(OC(C)CO)cn45)c3)no2)C1` (single isomer, unassigned) [I-202], the IC50 is below 50 nM at CSF-1R, below 50 nM at wtKIT [1] and 50 to 500 nM on PDGFRα. The “Solubility (μM)” value in the series “Kinetic solubility assay” is “*** (a solubility greater than 2 μM and less than or equal to 10 μM)”.
Regarding `Cc1cc(C)c(-c2noc(C3CC3F)n2)cc1NC(=O)c1cnc2ccccn12` (centres unmarked), the figures for the half-maximal inhibitory concentration (IC50) at CSF-1R, on wtKIT [1] and on PDGFRα were below 50 nM, below 50 nM and 50 to 500 nM, respectively. The “Solubility (μM)” value in “Kinetic solubility assay” is given as “**** (a solubility less than or equal to 2 μM)”.
`Cc1ccc(-c2noc(C3CC3F)n2)cc1NC(=O)c1cnc2ccc(C(N)=O)cn12` (centres unmarked): the IC50 is 50 to 500 nM on CSF-1R, below 50 nM at wtKIT [1] and 5000 to 30000 nM on PDGFRα. For the same compound, the “Solubility (μM)” value in the series “Kinetic solubility assay” is “** (a solubility greater than 10 μM and less than or equal to 50 μM)”.
As for `CNc1ccn2c(C(=O)Nc3cc(-c4noc([C@H]5C[C@@H]5F)n4)ccc3C)cnc2c1`, the IC50 at CSF-1R, at wtKIT [1] and on PDGFRα was below 50 nM each time. For the same compound, in “Kinetic solubility assay”, the “Solubility (μM)” value is “*** (a solubility greater than 2 μM and less than or equal to 10 μM)”.
With `CO[C@@H]1C[C@@H](c2nc(-c3ccc(C)c(NC(=O)c4cnc5ccccn45)c3)no2)C12CCC2` (relative stereo), the half-inhibitory concentration (IC50) at wtKIT [1] was below 50 nM. Moreover, the “Solubility (μM)” value in “Kinetic solubility assay” is reported as “**** (a solubility less than or equal to 2 μM)”. Also, in series [3], the MDCK-BCRP: Efflux Ratio stood at 1.03 and the “MDCK-BCRP: Papp A-B” value was 14.7 10^−6 cm/s.
Regarding `Cc1ccc(-c2noc(C3CCCN3S(C)(=O)=O)n2)cc1NC(=O)c1cnc2ccccn12` (centres unmarked), the half-maximal inhibitory concentration (IC50) on CSF-1R was 50 to 500 nM; at wtKIT [1], below 50 nM; on PDGFRα it was 500 to 5000 nM; at wtKIT [4], 50 to 500 nM. In addition, the “Solubility (μM)” value in “Kinetic solubility assay” was “**** (a solubility less than or equal to 2 μM)”.
With `Cc1ccc(-c2noc([C@H]3C[C@@H]3F)n2)cc1NC(=O)c1cnc2ccc(NS(=O)(=O)c3cccc4ccccc34)cn12`, the IC50 is below 50 nM on CSF-1R, below 50 nM on wtKIT [1] and 50 to 500 nM on PDGFRα. The “Solubility (μM)” value in “Kinetic solubility assay” is recorded as “**** (a solubility less than or equal to 2 μM)”.
Consider `Cc1ccc(-c2noc([C@H]3C[C@@H]3F)n2)cc1NC(=O)c1cnc2cc(NS(=O)(=O)c3cccs3)ccn12`, for which the figures for the IC50 at wtKIT [1] and on wtKIT [4] were below 50 nM and 50 to 500 nM, respectively. For the same compound, in the series “Kinetic solubility assay”, the “Solubility (μM)” value was “*** (a solubility greater than 2 μM and less than or equal to 10 μM)”. Further, in series [3], the MDCK-BCRP: Efflux Ratio was determined as 8.45. For the same compound, the “MDCK-BCRP: Papp A-B” value in series [3] was 1.54 10^−6 cm/s.
